{
  "source": "PubChem BioAssay AID588674",
  "about": "(Broad Institute, 2011)",
  "note": "Only a part is listed here, and it is no random draw. Some salts and complexes are drawn in separate pieces, as the source files them; their charges need not balance. Calls of active or inactive are those of the source.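 How the source made its calls: active means mean inhibition of at least 75% with every replicate also reaching 75%; inconclusive means mean inhibition at least 75% but some replicate below; inactive means mean inhibition below 75%.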",
  "data": [
    {"test": "reduction of Shn3 3'UTR firefly luciferase signal, primary screen, Schnurri-3 inhibitor project, cell-based, Clone20 osteoblasts, set 2 (AID 588674);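 further: 0% = median of neutral control wells and 100% = pilot-screen positive control compound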", "conditions": "Clone20 osteoblast Shn3 3'UTR firefly luciferase, 24 h; at 12.5 µM; stronger effect = higher value", "values": [
      {"smiles": "O=C(OCCCN1CCCC1)C(O)(c1ccccc1)C1CCCCC1", "note": "(stereo not given)", "inhibition": "inactive: -2.96%"},
      {"smiles": "COc1ccccc1OP(C)(=O)Nc1c(C)n(C)n(-c2ccccc2)c1=O", "note": "(stereo not given)", "inhibition": "inactive: -32.1%"},
      {"smiles": "CCc1ccc(OP(C)(=O)Nc2cccnc2)cc1", "note": "(stereo not given)", "inhibition": "inactive: -5.25%"},
      {"smiles": "CP(=O)(Oc1ccccc1)N1CCOC1=O", "note": "(stereo not given)", "inhibition": "inactive: -21.1%"},
      {"smiles": "COc1ccc(OP(C)(=O)Nc2ccc(Br)cc2)cc1", "note": "(stereo not given)", "inhibition": "inactive: -2.91%"},
      {"smiles": "CCN(CC)CC(O)COC(=O)C(O)(c1ccccc1)C1CCCCC1", "note": "(stereo not given)", "inhibition": "inactive: -7.91%"},
      {"smiles": "CN(C)C(=O)c1c([N+](=O)[O-])cc([N+](=O)[O-])cc1[N+](=O)[O-]", "inhibition": "inactive: 17.7%"},
      {"smiles": "COc1ccccc1OP(C)(=O)Nc1ccccc1Br", "note": "(stereo not given)", "inhibition": "inactive: -10.8%"},
      {"smiles": "CC(C)(C)c1ccc(OP(C)(=O)O)cc1", "inhibition": "inactive: 0.114%"},
      {"smiles": "CP(=O)(Nc1ccc(Cl)cc1)Oc1ccc(F)cc1", "note": "(stereo not given)", "inhibition": "inactive: -4.2%"},
      {"smiles": "CCOC(=O)c1ccc(NP(C)(=O)Oc2ccc(Cl)cc2)cc1", "note": "(stereo not given)", "inhibition": "inactive: 4.34%"},
      {"smiles": "CP(=O)(OC12CC3CC(CC(C3)C1)C2)OC12CC3CC(CC(C3)C1)C2", "inhibition": "inactive: 0.478%"},
      {"smiles": "COc1ccccc1OP(C)(=O)Nc1ccc(C)c(C)c1", "note": "(stereo not given)", "inhibition": "inactive: -16.5%"},
      {"smiles": "COc1ccc(OP(C)(=O)Nc2ccccc2Br)cc1", "note": "(stereo not given)", "inhibition": "inactive: -5.47%"},
      {"smiles": "Cc1cc(C)cc(OP(C)(=O)Nc2cccc(C(F)(F)F)c2)c1", "note": "(stereo not given)", "inhibition": "inactive: 24.5%"},
      {"smiles": "O=C1C(O)=C([N+](=O)[O-])C(=O)C(O)=C1[N+](=O)[O-]", "inhibition": "inactive: 17.1%"},
      {"smiles": "CCCCCCCCCCCCCCCC1C[N+](C)(C)CCOP(C)(=O)O1", "note": "(stereo not given)", "inhibition": "inactive: -4.62%"},
      {"smiles": "CP(=O)(Nc1ccc(Cl)cc1Cl)Oc1ccccc1", "note": "(stereo not given)", "inhibition": "inactive: -4.81%"},
      {"smiles": "CP(=O)(OCCOc1ccccc1)OCCOc1ccccc1", "inhibition": "inactive: -0.212%"},
      {"smiles": "COc1ccc(OP(C)(=O)Nc2ccccn2)cc1", "note": "(stereo not given)", "inhibition": "inactive: 2.64%"},
      {"smiles": "CN(C)CCOC(=O)C(O)(c1ccccc1)C1CCCC1", "note": "(stereo not given)", "inhibition": "inactive: 4.59%"},
      {"smiles": "COc1ccccc1OP(C)(=O)Nc1ccc(Br)cc1", "note": "(stereo not given)", "inhibition": "inactive: -21.3%"},
      {"smiles": "COc1ccccc1OP(C)(=O)Nc1ccc(C)cc1C", "note": "(stereo not given)", "inhibition": "inactive: -6.53%"},
      {"smiles": "CP(=O)(Nc1ccccn1)Oc1ccccc1", "note": "(stereo not given)", "inhibition": "inactive: -11.5%"},
      {"smiles": "CCc1ccc(OP(C)(=O)O)cc1", "inhibition": "inactive: 1.62%"},
      {"smiles": "Cc1c(NP(C)(=O)Oc2ccc(C(C)C)cc2)c(=O)n(-c2ccccc2)n1C", "note": "(stereo not given)", "inhibition": "active: 97.2%"},
      {"smiles": "O=[N+]([O-])c1cc([N+](=O)[O-])c(Nc2ccccn2)c([N+](=O)[O-])c1", "inhibition": "inactive: 51.6%"},
      {"smiles": "CP(=O)(Nc1ccccc1F)Oc1ccccc1", "note": "(stereo not given)", "inhibition": "inactive: 3.42%"},
      {"smiles": "CC(C)c1ccc(OP(C)(=O)Nc2ccc(SC(F)(F)F)cc2)cc1", "note": "(stereo not given)", "inhibition": "inactive: 16.3%"},
      {"smiles": "O=[N+]([O-])c1cc([N+](=O)[O-])c(Nc2ccc(Cl)cc2)c([N+](=O)[O-])c1", "inhibition": "inactive: 75.7%"},
      {"smiles": "COc1ccc2c(c1O)-c1c(O)c(OC)cc3c1[C@H](C2)[N+](C)(C)CC3.O=[N+]([O-])c1cc([N+](=O)[O-])c([O-])c([N+](=O)[O-])c1[O-]", "inhibition": "inactive: 6.48%"},
      {"smiles": "O=C(OC1CN2CCC1CC2)c1ccc([N+](=O)[O-])cc1", "note": "(stereo not given)", "inhibition": "inactive: 10.8%"},
      {"smiles": "O=C(OCCN1CCN(CCOCc2ccccc2)CC1)C(O)(c1ccccc1)c1ccccc1", "inhibition": "inactive: 19.8%"},
      {"smiles": "CCOC(=O)c1ccc(NP(C)(=O)Oc2ccc(F)cc2)cc1", "note": "(stereo not given)", "inhibition": "inactive: -22.7%"},
      {"smiles": "COc1ccc(OP(C)(=O)Nc2ccc(SC(F)(F)F)cc2)cc1", "note": "(stereo not given)", "inhibition": "inactive: -3.92%"},
      {"smiles": "CP(=O)(Nc1ccccc1)Oc1ccc(F)cc1", "note": "(stereo not given)", "inhibition": "inactive: 0.786%"},
      {"smiles": "O=[N+]([O-])c1cc([N+](=O)[O-])c(OC2CCCCC2O)c([N+](=O)[O-])c1", "note": "(stereo not given)", "inhibition": "inactive: -8.37%"},
      {"smiles": "Cc1c([N+](=O)[O-])cc([N+](=O)[O-])c(Br)c1[N+](=O)[O-]", "inhibition": "inactive: 0.737%"},
      {"smiles": "CCN(CC)CCCOC(=O)C(O)(c1ccccc1)C1CCCCC1", "note": "(stereo not given)", "inhibition": "inactive: -4.9%"},
      {"smiles": "CN(C)CCOC(=O)C(O)(c1ccccc1)C1CCCCC1", "note": "(stereo not given)", "inhibition": "inactive: 15.8%"},
      {"smiles": "COc1ccc(NP(C)(=O)Oc2ccccc2OC)cc1", "note": "(stereo not given)", "inhibition": "inactive: 17.4%"},
      {"smiles": "COc1ccc(OP(C)(=O)Nc2cccc(Br)c2)cc1", "note": "(stereo not given)", "inhibition": "inactive: -35.1%"},
      {"smiles": "Cc1c(C(c2ccc3c(c2)OCO3)c2c(C)n(C)n(-c3ccccc3)c2=O)c(=O)n(-c2ccccc2)n1C.O=[N+]([O-])c1cc([N+](=O)[O-])c(O)c([N+](=O)[O-])c1", "inhibition": "inactive: -4.97%"},
      {"smiles": "O=[N+]([O-])c1ccc(OP2(=O)COCCO2)cc1", "note": "(stereo not given)", "inhibition": "inactive: 0.396%"},
      {"smiles": "O=[N+]([O-])c1cc([N+](=O)[O-])c(NCC2CCS(=O)(=O)C2)c([N+](=O)[O-])c1", "note": "(stereo not given)", "inhibition": "inactive: 8.04%"}
    ]}
  ]
}
